Data on 1 compound can be found in ChEMBL document CHEMBL1148680 (Bioorg Med Chem Lett, 2006).

By UniProt entry, the sequences of proteins in these tests, tags left out. Where a name states a change or a piece, a line headed by the entry shows the natural chain unless it says otherwise.
UniProt Q12809: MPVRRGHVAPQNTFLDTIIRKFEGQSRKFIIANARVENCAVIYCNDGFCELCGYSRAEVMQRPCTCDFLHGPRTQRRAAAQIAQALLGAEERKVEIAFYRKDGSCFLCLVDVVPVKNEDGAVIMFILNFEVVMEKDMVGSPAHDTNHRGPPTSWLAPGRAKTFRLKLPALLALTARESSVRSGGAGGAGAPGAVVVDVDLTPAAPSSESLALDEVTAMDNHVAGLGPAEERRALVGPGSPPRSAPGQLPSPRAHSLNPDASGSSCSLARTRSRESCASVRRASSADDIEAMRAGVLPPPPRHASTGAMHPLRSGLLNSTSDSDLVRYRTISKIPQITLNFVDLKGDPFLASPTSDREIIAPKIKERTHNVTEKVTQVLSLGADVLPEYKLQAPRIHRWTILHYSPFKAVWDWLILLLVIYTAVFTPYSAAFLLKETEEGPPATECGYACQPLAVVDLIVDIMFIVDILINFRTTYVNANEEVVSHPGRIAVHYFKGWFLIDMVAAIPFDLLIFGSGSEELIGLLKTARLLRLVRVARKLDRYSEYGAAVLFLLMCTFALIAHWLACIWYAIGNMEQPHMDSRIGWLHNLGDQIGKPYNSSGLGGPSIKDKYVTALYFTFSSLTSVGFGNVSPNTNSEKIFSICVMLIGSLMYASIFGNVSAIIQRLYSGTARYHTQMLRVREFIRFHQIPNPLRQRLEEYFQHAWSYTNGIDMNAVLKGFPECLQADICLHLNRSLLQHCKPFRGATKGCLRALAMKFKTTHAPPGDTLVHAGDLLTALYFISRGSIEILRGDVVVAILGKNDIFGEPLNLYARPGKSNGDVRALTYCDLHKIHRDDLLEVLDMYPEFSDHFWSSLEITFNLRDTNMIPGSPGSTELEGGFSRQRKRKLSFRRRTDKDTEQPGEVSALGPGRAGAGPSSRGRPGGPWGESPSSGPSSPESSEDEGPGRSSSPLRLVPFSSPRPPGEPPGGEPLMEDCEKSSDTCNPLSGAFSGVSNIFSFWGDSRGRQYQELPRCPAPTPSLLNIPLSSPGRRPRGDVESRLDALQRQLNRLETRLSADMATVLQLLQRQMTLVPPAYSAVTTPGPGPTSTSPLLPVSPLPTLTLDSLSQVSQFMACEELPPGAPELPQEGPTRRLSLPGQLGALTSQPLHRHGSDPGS

The target of the data set is Voltage-gated inwardly rectifying potassium channel KCNH2 (Homo sapiens, UniProt Q12809). Description: Inhibition of [3H]dofetilide binding to HERG expressed in HEK293 cells. It is filed as cell-based.

SMILES strings stand for the structures.

In the case of `CN(CCOc1ccc(NS(C)(=O)=O)cc1)CCc1ccc(NS(C)(=O)=O)cc1` [DOFETILIDE], the Activity was determined as 0.011 µM.
